Data reported in PMC5979958, “Identification of an Arg-Leu-Arg tripeptide that contributes to the binding interface between the cytokine MIF and the chemokine receptor CXCR4” (Scientific Reports, 2018).

System: MIF/CXCR4-dependent JVM-3 lymphocyte chemotaxis
Assay: inhibition of MIF-mediated JVM-3 B cell chemotaxis by RLR-containing peptides
Assay type: cell-based, human
Details: 10 nM, 100 nM or 1 µM peptide; 16 nM WT-MIF; concentration dependence and relative potency of the two peptides
Protocol: Together, the peptide competition experiment corroborated the notion that the RLR region directly contributes to functional MIF/CXCR4 interactions.
Migration assays using the CXCR4-expressing JVM-3 B cell line were performed in a transmigration well as previously described[32] using the following modifications. Briefly, JVM-3 B cells were sub-cultured and transferred to media without FBS. A migration assay was performed using 24-well format Transwell membranes (Sigma-Corning; 5 µm pore size) containing 1 × 10^6 JVM-3 cells in the upper chamber. […] As positive control, 8 nM CXCL12 was used. Wells without chemoattractant served as negative control and were used to normalize migration effects to ‘chemotactic index’ (number of migrated cells in the presence of chemoattractant divided by the number of migrated cells in the absence of the chemoattractant) – as described previously. In the inhibition assay, 10 nM, 100 nM, or 1 µM of the RLR-containing MIF peptides 76–90 ([…]) or 86–100 ([…]) were pre-incubated with WT-MIF for 30 min prior to the migration process and also added to the upper chamber. Cells were allowed to migrate for 24 h. After migration, cells in the lower chamber were counted using Countbright absolute counting beads (Invitrogen) using a FACSVerse flow cytometer (BD Biosciences, Heidelberg, Germany).

Sequence: YSKLLCGLLAERLRI [MIF(76–90), RLR-spanning MIF peptide]
- competition with WT-MIF in JVM-3 chemotaxis, overall: even more potent; also recorded: block

Sequence: ERLRISPDRVYINYY [MIF(86–100), RLR-spanning MIF peptide]
- competition with WT-MIF in JVM-3 chemotaxis, overall: concentration-dependent competition behavior; also recorded: block

“Also recorded” adds a separate entry of the source.
